The values that follow come from patent US20240360179A1, “STAPLED PEPTIDES AND METHODS THEREOF” (FOG PHARMACEUTICALS, INC., priority 2021, published 2024).

Protein sequences, listed by entry. Tags and fused reporters are not part of them.
UniProt P35222, whole entry: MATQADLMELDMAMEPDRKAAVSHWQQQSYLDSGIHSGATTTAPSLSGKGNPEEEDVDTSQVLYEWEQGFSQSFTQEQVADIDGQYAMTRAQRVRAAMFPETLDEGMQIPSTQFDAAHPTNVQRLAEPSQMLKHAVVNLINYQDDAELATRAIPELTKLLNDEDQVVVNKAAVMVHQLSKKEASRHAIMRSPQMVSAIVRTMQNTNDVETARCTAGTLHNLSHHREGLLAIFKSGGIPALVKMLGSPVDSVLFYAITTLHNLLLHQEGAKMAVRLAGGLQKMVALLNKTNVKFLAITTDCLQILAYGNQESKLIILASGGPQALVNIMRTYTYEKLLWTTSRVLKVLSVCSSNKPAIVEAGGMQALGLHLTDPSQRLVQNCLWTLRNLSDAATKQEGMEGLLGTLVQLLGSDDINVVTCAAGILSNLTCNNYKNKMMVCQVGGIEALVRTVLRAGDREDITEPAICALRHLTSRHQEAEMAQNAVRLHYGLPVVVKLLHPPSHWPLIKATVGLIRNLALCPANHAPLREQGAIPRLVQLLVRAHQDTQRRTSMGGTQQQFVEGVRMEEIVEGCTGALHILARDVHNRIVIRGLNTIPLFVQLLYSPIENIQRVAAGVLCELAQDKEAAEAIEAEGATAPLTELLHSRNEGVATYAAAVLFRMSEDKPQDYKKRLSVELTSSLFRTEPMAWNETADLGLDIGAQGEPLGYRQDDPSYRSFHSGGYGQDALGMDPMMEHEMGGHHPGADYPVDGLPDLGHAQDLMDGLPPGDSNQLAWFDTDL

The target in the assay is T1, full-length B-Catenin (Uniprot ID P35222) (Homo sapiens, UniProt P35222).
T1 construct: 10 nM full-length B-Catenin (Uniprot ID P35222)
Description: biochemical. Format: binding. Particulars: beta-Catenin FP IC50 (nM), competition fluorescence polarization.
As to `CC(=O)N1CCC[C@]12CC=CCCCC1(CCCC=CCCCOC(=O)N3CC[C@@]4(C3)NC(=O)[C@H](CCCCNC(=O)CC[C@@H](C(=O)N[C@@H](C)C(N)=O)NC(=O)[C@H](Cc3csc5ccccc35)NC(=O)[C@H](Cc3ccsc3)NC4=O)NC(=O)[C@H](Cc3ccccc3)NC(=O)[C@H](C)NC(=O)[C@H](CCC(=O)N3CCOCC3)NC(=O)[C@H](Cc3cccc(C(=O)O)c3)NC(=O)[C@H](CC(=O)O)NC1=O)NC(=O)[C@H](CC(C)(C)C)NC(=O)[C@H]([C@H](C)O)NC2=O` (relative stereo) [I-325, Ac-PL3-aThr-Npg-B5-Asp-3COOHF-MorphGln-Ala-Phe-Lys*3-PyrS2-3Thi-BztA-GlnR*3-Ala-NH2], the IC50 fell in the range of 200 to 750 nM.

`CC(=O)N1CCC[C@]12CC=CCCCC1(CCCC=CCCCOC(=O)N3CC[C@@]4(C3)NC(=O)[C@H](CCCCNC(=O)CC[C@@H](C(=O)N[C@@H](C)C(N)=O)NC(=O)[C@H](Cc3ccc(Cl)c(Cl)c3)NC(=O)[C@H](Cc3ccccc3C(F)(F)F)NC4=O)NC(=O)[C@H](Cc3ccccc3)NC(=O)[C@H](C)NC(=O)C(C)(C)NC(=O)[C@H](Cc3cccc(C(=O)O)c3)NC(=O)[C@H](CC(=O)O)NC1=O)NC(=O)[C@H](CC(C)(C)C)NC(=O)[C@H](CC(=O)O)NC2=O` (relative stereo) [I-327, Ac-PL3-Asp-Npg-B5-Asp-3COOHF-Aib-Ala-Phe-Lys*3-PyrS2-2F3MeF-34ClF-GlnR*3-Ala-NH2] came in with an IC50 of less than 50 nM.

`CC(=O)N1CCC[C@]12CC=CCCCC1(CCCC=CCCCOC(=O)N3CC[C@@]4(C3)NC(=O)[C@H](CCCCNC(=O)CC[C@@H](C(=O)N[C@@H](C)C(N)=O)NC(=O)[C@H](Cc3cccc(Br)c3)NC(=O)[C@H](Cc3ccccc3C(F)(F)F)NC4=O)NC(=O)[C@H](Cc3ccccc3)NC(=O)[C@H](C)NC(=O)C(C)(C)NC(=O)[C@H](Cc3cccc(C(=O)O)c3)NC(=O)[C@H](CC(=O)O)NC1=O)NC(=O)[C@H](CC(C)(C)C)NC(=O)[C@H](CC(=O)O)NC2=O` (relative stereo) [I-331, Ac-PL3-Asp-Npg-B5-Asp-3COOHF-Aib-Ala-Phe-Lys*3-PyrS2-2F3MeF-3BrF-GlnR*3-Ala-NH2] yielded an IC50 of less than 50 nM.

`CC(=O)N1CCC[C@]12CC=CCCCC1(CCCC=CCCCOC(=O)N3CC[C@@]4(C3)NC(=O)[C@H](CCCCNC(=O)CC[C@@H](C(=O)N[C@@H](C)C(N)=O)NC(=O)[C@H](Cc3cccc(Br)c3)NC(=O)[C@H](Cc3ccccc3)NC4=O)NC(=O)[C@H](Cc3ccccc3)NC(=O)[C@H](C)NC(=O)C(C)(C)NC(=O)[C@H](Cc3cccc(C(=O)O)c3)NC(=O)[C@H](CC(=O)O)NC1=O)NC(=O)[C@H](CC(C)(C)C)NC(=O)[C@H](CC(=O)O)NC2=O` (relative stereo) [I-333, Ac-PL3-Asp-Npg-B5-Asp-3COOHF-Aib-Ala-Phe-Lys*3-PyrS2-Phe-3BrF-GlnR*3-Ala-NH2] gave an IC50 of less than 50 nM.

Regarding `CC(=O)N1CCC[C@]12CC=CCCCC1(CCCC=CCCCOC(=O)N3CC[C@@]4(C3)NC(=O)[C@H](CCCCNC(=O)CC[C@@H](C(=O)N[C@@H](C)C(N)=O)NC(=O)[C@H](Cc3csc5ccccc35)NC(=O)[C@H](Cc3ccccc3C(=O)O)NC4=O)NC(=O)[C@H](Cc3cccc(C(=O)O)c3)NC(=O)[C@H](C)NC(=O)C(C)(C)NC(=O)[C@H](Cc3cccc(C(=O)O)c3)NC(=O)[C@H](CC(=O)O)NC1=O)NC(=O)[C@H](CC(C)(C)C)NC(=O)[C@H](CC(=O)O)NC2=O` (relative stereo) [I-346, Ac-PL3-Asp-Npg-B5-Asp-3COOHF-Aib-Ala-3COOHF-Lys*3-PyrS2-2COOHF-BztA-GlnR*3-Ala-NH2], the IC50 lay within 50 to 200 nM.

Turning to `CC(=O)N1CCC[C@]12CC=CCCCC1(CCCC=CCCCOC(=O)N3CC[C@@]4(C3)NC(=O)[C@H](CCCCNC(=O)CC[C@@H](C(=O)N[C@@H](CCC(=O)O)C(=O)N[C@@H](C)C(=O)O)NC(=O)[C@H](Cc3csc5ccccc35)NC(=O)[C@H](Cc3ccsc3)NC4=O)NC(=O)[C@H](Cc3ccccc3)NC(=O)[C@H](C)NC(=O)C(C)(C)NC(=O)[C@H](Cc3cccc(C(=O)O)c3)NC(=O)[C@H](CC(=O)O)NC1=O)NC(=O)[C@H](CC(C)(C)C)NC(=O)[C@H](CC(=O)O)NC2=O` (relative stereo) [I-348, Ac-PL3-Asp-Npg-B5-Asp-3COOHF-Aib-Ala-Phe-Lys*3-PyrS2-3Thi-BztA-GlnR*3-Glu-Ala-OH], the IC50 is less than 50 nM.

As to `CC(=O)N1CCC[C@]12CC=CCCCC1(CCCC=CCCCOC(=O)N3CC[C@@]4(C3)NC(=O)[C@H](CCCCNC(=O)CC[C@@H](C(=O)N[C@@H](C)C(N)=O)NC(=O)[C@H](Cc3csc5ccccc35)NC(=O)[C@H](Cc3ccsc3)NC4=O)NC(=O)[C@H](CC3CCC3)NC(=O)[C@H](C)NC(=O)C(C)(C)NC(=O)[C@H](Cc3cccc(C(=O)O)c3)NC(=O)[C@H](CC(=O)O)NC1=O)NC(=O)[C@H](CC(C)(C)C)NC(=O)[C@H](CC(=O)O)NC2=O` (relative stereo) [I-353, Ac-PL3-Asp-Npg-B5-Asp-3COOHF-Aib-Ala-Cba-Lys*3-PyrS2-3Thi-BztA-GlnR*3-Ala-NH2], the IC50 was less than 50 nM.

As for `CC(=O)N1CCC[C@]12CC=CCCCC1(CCCC=CCCCOC(=O)N3CC[C@@]4(C3)NC(=O)[C@H](CCCCNC(=O)CC[C@@H](C(=O)N[C@@H](C)C(N)=O)NC(=O)[C@H](Cc3csc5ccccc35)NC(=O)[C@H](Cc3ccsc3)NC4=O)NC(=O)[C@H](CC(C)C)NC(=O)[C@H](C)NC(=O)C(C)(C)NC(=O)[C@H](Cc3cccc(C(=O)O)c3)NC(=O)[C@H](CC(=O)O)NC1=O)NC(=O)[C@H](CC(C)(C)C)NC(=O)[C@H](CC(=O)O)NC2=O` (relative stereo) [I-360, Ac-PL3-Asp-Npg-B5-Asp-3COOHF-Aib-Ala-Leu-Lys*3-PyrS2-3Thi-BztA-GlnR*3-Ala-NH2], the IC50 is 750 to 1000 nM.

As to `CC[C@H](C)[C@@H]1NC(=O)[C@H](C)NC(=O)C(C)(C)NC(=O)[C@H](Cc2cccc(C(=O)O)c2)NC(=O)[C@H](CC(=O)O)NC(=O)C2(CCCC=CCCCOC(=O)N3CC[C@@]4(C3)NC(=O)[C@H](CCCCNC(=O)CC[C@@H](C(=O)N[C@@H](C)C(N)=O)NC(=O)[C@H](Cc3csc5ccccc35)NC(=O)[C@H](Cc3ccsc3)NC4=O)NC1=O)CCCC=CC[C@]1(CCCN1C(C)=O)C(=O)N[C@@H](CC(=O)O)C(=O)N[C@@H](CC(C)(C)C)C(=O)N2` (relative stereo) [I-361, Ac-PL3-Asp-Npg-B5-Asp-3COOHF-Aib-Ala-Ile-Lys*3-PyrS2-3Thi-BztA-GlnR*3-Ala-NH2], the IC50 was greater than 1000 nM.

In the case of `CCCC[C@@H]1NC(=O)[C@H](C)NC(=O)C(C)(C)NC(=O)[C@H](Cc2cccc(C(=O)O)c2)NC(=O)[C@H](CC(=O)O)NC(=O)C2(CCCC=CCCCOC(=O)N3CC[C@@]4(C3)NC(=O)[C@H](CCCCNC(=O)CC[C@@H](C(=O)N[C@@H](C)C(N)=O)NC(=O)[C@H](Cc3csc5ccccc35)NC(=O)[C@H](Cc3ccsc3)NC4=O)NC1=O)CCCC=CC[C@]1(CCCN1C(C)=O)C(=O)N[C@@H](CC(=O)O)C(=O)N[C@@H](CC(C)(C)C)C(=O)N2` (relative stereo) [I-362, Ac-PL3-Asp-Npg-B5-Asp-3COOHF-Aib-Ala-nLeu-Lys*3-PyrS2-3Thi-BztA-GlnR*3-Ala-NH2], the IC50 was less than 50 nM.

Compound `CC(=O)N1CCC[C@]12CC=CCCCC1(CCCC=CCCCOC(=O)N3CC[C@@]4(C3)NC(=O)[C@H](CCCCNC(=O)CC[C@@H](C(=O)N[C@@H](C)C(N)=O)NC(=O)[C@H](Cc3csc5ccccc35)NC(=O)[C@H](Cc3ccsc3)NC4=O)NC(=O)[C@H](C3CCCCC3)NC(=O)[C@H](C)NC(=O)C(C)(C)NC(=O)[C@H](Cc3cccc(C(=O)O)c3)NC(=O)[C@H](CC(=O)O)NC1=O)NC(=O)[C@H](CC(C)(C)C)NC(=O)[C@H](CC(=O)O)NC2=O` (relative stereo) [I-366, Ac-PL3-Asp-Npg-B5-Asp-3COOHF-Aib-Ala-Chg-Lys*3-PyrS2-3Thi-BztA-GlnR*3-Ala-NH2] showed an IC50 greater than 1000 nM.

The compound `CC(=O)N1CCC[C@]12CC=CCCCC1(CCCC=CCCCOC(=O)N3CC[C@@]4(C3)NC(=O)[C@H](CCCCNC(=O)CC[C@@H](C(=O)N[C@@H](C)C(N)=O)NC(=O)[C@H](Cc3csc5ccccc35)NC(=O)[C@H](Cc3ccsc3)NC4=O)NC(=O)[C@H](CCO)NC(=O)[C@H](C)NC(=O)C(C)(C)NC(=O)[C@H](Cc3cccc(C(=O)O)c3)NC(=O)[C@H](CC(=O)O)NC1=O)NC(=O)[C@H](CC(C)(C)C)NC(=O)[C@H](CC(=O)O)NC2=O` (relative stereo) [I-367, Ac-PL3-Asp-Npg-B5-Asp-3COOHF-Aib-Ala-Hse-Lys*3-PyrS2-3Thi-BztA-GlnR*3-Ala-NH2] gave an IC50 of 50 to 200 nM.

On to `CC(=O)N1CCC[C@]12CC=CCCCC1(CCCC=CCCCOC(=O)N3CC[C@@]4(C3)NC(=O)[C@H](CCCCNC(=O)CC[C@@H](C(=O)N[C@@H](C)C(N)=O)NC(=O)[C@H](Cc3csc5ccccc35)NC(=O)[C@H](Cc3ccsc3)NC4=O)NC(=O)[C@H](Cc3c[nH]nn3)NC(=O)[C@H](C)NC(=O)C(C)(C)NC(=O)[C@H](Cc3cccc(C(=O)O)c3)NC(=O)[C@H](CC(=O)O)NC1=O)NC(=O)[C@H](CC(C)(C)C)NC(=O)[C@H](CC(=O)O)NC2=O` (relative stereo) [I-368, Ac-PL3-Asp-Npg-B5-Asp-3COOHF-Aib-Ala-4TriA-Lys*3-PyrS2-3Thi-BztA-GlnR*3-Ala-NH2], for which the IC50 lay in the range of 200 to 750 nM.

In turn, `CC(=O)N1CCC[C@]12CC=CCCCC1(CCCC=CCCCOC(=O)N3CC[C@@]4(C3)NC(=O)[C@H](CCCCNC(=O)CC[C@@H](C(=O)N[C@@H](C)C(N)=O)NC(=O)[C@H](Cc3csc5ccccc35)NC(=O)[C@H](Cc3ccsc3)NC4=O)NC(=O)[C@H]([C@@H](C)O)NC(=O)[C@H](C)NC(=O)C(C)(C)NC(=O)[C@H](Cc3cccc(C(=O)O)c3)NC(=O)[C@H](CC(=O)O)NC1=O)NC(=O)[C@H](CC(C)(C)C)NC(=O)[C@H](CC(=O)O)NC2=O` (relative stereo) [I-370, Ac-PL3-Asp-Npg-B5-Asp-3COOHF-Aib-Ala-Thr-Lys*3-PyrS2-3Thi-BztA-GlnR*3-Ala-NH2] had an IC50 greater than 1000 nM.

In turn, `CC(=O)N1CCC[C@]12CC=CCCCC1(CCCC=CCCCOC(=O)N3CC[C@@]4(C3)NC(=O)[C@H](CCCCNC(=O)CC[C@@H](C(=O)N[C@@H](C)C(N)=O)NC(=O)[C@H](Cc3csc5ccccc35)NC(=O)[C@H](Cc3ccsc3)NC4=O)NC(=O)[C@H](Cc3c[nH]cn3)NC(=O)[C@H](C)NC(=O)C(C)(C)NC(=O)[C@H](Cc3cccc(C(=O)O)c3)NC(=O)[C@H](CC(=O)O)NC1=O)NC(=O)[C@H](CC(C)(C)C)NC(=O)[C@H](CC(=O)O)NC2=O` (relative stereo) [I-371, Ac-PL3-Asp-Npg-B5-Asp-3COOHF-Aib-Ala-His-Lys*3-PyrS2-3Thi-BztA-GlnR*3-Ala-NH2] returned an IC50 of 200 to 750 nM.
